Source: paper PMC7723054
The other results are listed elsewhere or left out.

T1: LIN28A (human?, UniProt Q9H9Z2 1-209)
T1 sequence: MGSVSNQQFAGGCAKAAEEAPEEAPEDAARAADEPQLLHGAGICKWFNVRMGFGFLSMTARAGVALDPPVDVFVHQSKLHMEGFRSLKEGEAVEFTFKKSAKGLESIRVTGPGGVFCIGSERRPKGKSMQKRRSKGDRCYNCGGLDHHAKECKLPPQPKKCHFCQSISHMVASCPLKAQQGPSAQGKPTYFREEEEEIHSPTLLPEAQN

T2: CIRBP (Homo sapiens, UniProt Q14011 1-172)
T2 sequence: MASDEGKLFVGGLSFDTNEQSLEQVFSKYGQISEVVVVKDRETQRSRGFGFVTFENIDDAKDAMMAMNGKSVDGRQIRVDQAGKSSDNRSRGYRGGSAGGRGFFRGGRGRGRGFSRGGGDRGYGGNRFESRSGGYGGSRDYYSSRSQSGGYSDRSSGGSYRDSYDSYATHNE

T3: DHX36 (Homo sapiens, UniProt Q9H2U1 1-1008)
T3 sequence: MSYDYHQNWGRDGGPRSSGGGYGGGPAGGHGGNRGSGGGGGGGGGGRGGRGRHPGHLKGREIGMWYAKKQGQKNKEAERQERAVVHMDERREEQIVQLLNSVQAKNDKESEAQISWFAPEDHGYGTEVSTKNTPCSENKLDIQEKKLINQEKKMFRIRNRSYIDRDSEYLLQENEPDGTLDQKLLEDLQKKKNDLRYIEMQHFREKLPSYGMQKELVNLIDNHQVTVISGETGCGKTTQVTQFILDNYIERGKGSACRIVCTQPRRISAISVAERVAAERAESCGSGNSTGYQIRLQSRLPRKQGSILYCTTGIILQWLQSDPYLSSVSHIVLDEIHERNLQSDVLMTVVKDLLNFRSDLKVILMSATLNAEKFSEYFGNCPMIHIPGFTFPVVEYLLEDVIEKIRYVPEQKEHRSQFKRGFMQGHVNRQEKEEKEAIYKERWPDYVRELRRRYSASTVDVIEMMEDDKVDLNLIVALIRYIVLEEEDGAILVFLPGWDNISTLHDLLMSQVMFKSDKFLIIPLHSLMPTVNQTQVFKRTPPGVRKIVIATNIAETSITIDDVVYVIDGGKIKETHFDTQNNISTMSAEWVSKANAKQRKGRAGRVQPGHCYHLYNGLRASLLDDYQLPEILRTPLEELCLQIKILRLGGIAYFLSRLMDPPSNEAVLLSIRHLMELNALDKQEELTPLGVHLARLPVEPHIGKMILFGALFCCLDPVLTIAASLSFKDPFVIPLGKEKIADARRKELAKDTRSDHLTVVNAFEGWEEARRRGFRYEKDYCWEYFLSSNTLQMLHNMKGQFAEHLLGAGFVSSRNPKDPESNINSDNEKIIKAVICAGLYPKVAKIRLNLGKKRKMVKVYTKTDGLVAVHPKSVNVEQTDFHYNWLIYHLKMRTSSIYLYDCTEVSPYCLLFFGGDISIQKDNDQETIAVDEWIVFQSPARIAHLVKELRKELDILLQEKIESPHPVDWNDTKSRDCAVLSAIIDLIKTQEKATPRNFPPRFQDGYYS

B1: hsa-mir-1278 (structured_RNA)
RNA: GGGAAGGUCCUUCAUAGGAGAAGACCCAGGUGUACGAAGUUUCAGCACUCCCAGAACUCAUUAAGUUGGUAGUGCUGAAGCUUCGUGCAC
B2: hsa-mir-4296 (structured_RNA)
RNA: GGGAAGGUCAGGCUUGUUAGGAAUCAUAGGUGUACGAAGUUUCAGCCUCAGAGGGCUGAAGUGGUUGUGGGGAGGGGCUUCUGGGGCUGAAGCUUCGUGCAC
B3: hsa-mir-3161 (structured_RNA)
RNA: GGGAACGCCGGUUAACUGGUGUAGACGAGGUGUACGAAGUUUCAGCGAUUGAAGUUGAAUAGUGCGCUGAAGCUUCGUGCAC
B4: hsa-mir-601 (structured_RNA)
RNA: GGGAGAGUUUUGAGCGAAAUCAACGGAAGGUGUACGAAGUUUCAGCGAGUCAGAAAAACUACGCUGAAGCUUCGUGCAC
B5: hsa-mir-587 (structured_RNA)
RNA: GGGACAAGCGCAAAGAGGUAUAAAUUCUGGUGUACGAAGUUUCAGCUCACAGGGCUCAGGGAAUGUGUCUGCACCUGUGAGCUGAAGCUUCGUGCAC
B6: hsa-mir-218-2 (structured_RNA)
RNA: GGGACACGAGGACGACUGUAUCCUUAGGGGUGUACGAAGUUUCAGCCAUGUGGUGGAACGAUGGAAACGGAACAUGGCUGAAGCUUCGUGCAC
B7: hsa-mir-196a-2 (structured_RNA)
RNA: GGGAGUAGCACGUCCCUCACCUAGACGAGGUGUACGAAGUUUCAGCGUUGGGAUUGAGUUUUGAACUCGGCGCUGAAGCUUCGUGCAC
B8: hsa-mir-6829 (structured_RNA)
RNA: GGGAAUUAGAAACUGGUAACCACUGUGUGGUGUACGAAGUUUCAGCGGCAGGGUCCUCCAGCUCAUUCCUCCUGCCGCUGAAGCUUCGUGCAC
B9: hsa-mir-3714 (structured_RNA)
RNA: GGGAAUAGUUGGCGGCCUCCUAUAGCGUGGUGUACGAAGUUUCAGCCUGUGACGUGCUCCAUCACCGGGCAGGCUGAAGCUUCGUGCAC
B10: hsa-mir-5091 (structured_RNA)
RNA: GGGAAUAUAAAGGCUCAGCGGAGUGUACGGUGUACGAAGUUUCAGCGCUGGUCGCGGGUUGUGGGGUUUAGGUCACCGGCGCUGAAGCUUCGUGCAC
B11: hsa-mir-4271 (structured_RNA)
RNA: GGGAAAGAGUAUCAUAGGGCAUACGUACGGUGUACGAAGUUUCAGCCCUGCAGCCCCCAGGUGGGGGGGCUGAAGCUUCGUGCAC
B12: hsa-mir-595 (structured_RNA)
RNA: GGGAAACCGUAUGGCAGAUAGCUUAAGCGGUGUACGAAGUUUCAGCCUCAAUGUAGUCUUGUAAGGAACAGGUUGAAGGCUGAAGCUUCGUGCAC
B13: hsa-mir-4637 (structured_RNA)
RNA: GGGAACUGCUAGUGGACGCAGAAGCUACGGUGUACGAAGUUUCAGCAGUAUUUUAAUCAUAGAUUGUAUUUAGUUAGUUUUUAAUACUGCUGAAGCUUCGUGCAC
B14: hsa-mir-7703 (structured_RNA)
RNA: GGGAGCAGCGCUCAAAGGAACUAAGAUCGGUGUACGAAGUUUCAGCGGGGGCAGGCAGGGGAUUGGCUAAGAACCUGACUCUUGCGCUGAAGCUUCGUGCAC
B15: hsa-mir-6830 (structured_RNA)
RNA: GGGAGAUUGUGUCAACCGCUAGCCAUAAGGUGUACGAAGUUUCAGCGACAUCCCUCAUCUGUUUCUCACUGGUGUCGCUGAAGCUUCGUGCAC
B16: hsa-mir-1252 (structured_RNA)
RNA: GGGAACGCCUUACGGAUCACAAGUUUUCGGUGUACGAAGUUUCAGCUUUAGAAAAGAGAAUUCCAAAGCUGAAGCUUCGUGCAC
B17: hsa-mir-3616 (structured_RNA)
RNA: GGGCGCUGUAUAAUCAUGCAGAUACAAGGGUGUACGAAGUUUCAGCCUCAUGAUAUGUUUGCCCCAUCAGCGUGUCACGAGGCUGAAGCUUCGUGCAC
B18: hsa-mir-3910-1 (structured_RNA)
RNA: GGGAACCGGUGACCUGCCAGCGUAAAUUGGUGUACGAAGUUUCAGCCUUUUAUAUCAAGGCACAUAAAAGGCUGAAGCUUCGUGCAC
B19: hsa-mir-6730 (structured_RNA)
RNA: GGGAACCACGCUGAAGGCUAAUUGGAAAGGUGUACGAAGUUUCAGCCAGAGCUGCAGCUGCUCCACCCUGGCUGAAGCUUCGUGCAC
B20: hsa-mir-3200 (structured_RNA)
RNA: GGGACCCGAACGCAAGAGGAUUAACUUCGGUGUACGAAGUUUCAGCAGGUUUGUGUCCAAUACAGUCCACACCUGCUGAAGCUUCGUGCAC
B21: hsa-mir-6133 (structured_RNA)
RNA: GGGAAAGGUACAACUGGCCACCCUACGGGGUGUACGAAGUUUCAGCUUCUGCUGAAGACUGGUCUCUUCAUGUGUGAGGCUGAAGCUUCGUGCAC
B22: hsa-mir-487b (structured_RNA)
RNA: GGGAAAACUGUGACGGCCAAGCUCAUACGGUGUACGAAGUUUCAGCUGUUCGUUUUGCUCAUGUCGAAUCGCUGAAGCUUCGUGCAC
B23: hsa-mir-7852 (structured_RNA)
RNA: GGGAACACUGUACUAUGACCGUCAGCCAGGUGUACGAAGUUUCAGCCAUACAUAUGCCUACUACUACUUUCAUAUGUAGGCAUAUGUAUGGCUGAAGCUUCGUGCAC

Target: U1A (Homo sapiens, UniProt P09012)
Experiment: FOREST: bead pull-down of RNA structure library v1, barcode microarray; U1A/LIN28A: 20 mM HEPES pH 7.5, 80 mM KCl, 20 mM NaCl, 10% glycerol, 2 mM DTT, 0.1 ug/uL BSA, 4 C; BG4/CIRBP/DHX36: 10 mM Tris-HCl pH 7.5, 100 mM KCl (or LiCl),; high values mean tight binding

| Binder | binding signal [z-score] |
| --- | --- |
| B1 | 0.562 |
| B2 | 0.553 |
| B3 | 0.544 |
| B4 | 0.537 |
| B5 | 0.544 |
| B6 | 0.537 |
| B7 | 0.543 |
| B8 | 0.573 |
| B9 | 0.572 |
| B10 | 0.541 |
| B11 | 2.16 |
| B12 | 0.545 |
| B13 | 0.539 |
| B14 | 0.533 |
| B15 | 0.544 |
| B16 | 0.558 |
| B17 | 0.558 |
| B18 | 2.13 |
| B19 | 0.57 |
| B20 | 0.559 |
| B21 | 0.552 |
| B22 | 0.542 |
| B23 | 0.535 |

Target: T1, LIN28A
Experiment: as above

| Binder | binding signal [z-score] |
| --- | --- |
| B1 | -1.26 |
| B2 | 2.73 |
| B3 | 0.139 |
| B4 | 0.435 |
| B5 | -0.00593 |
| B6 | 0.698 |
| B7 | -0.318 |
| B8 | -0.477 |
| B9 | -1.11 |
| B10 | 2.68 |
| B11 | -0.561 |
| B12 | -0.247 |
| B13 | 0.0946 |
| B14 | -0.547 |
| B15 | -0.398 |
| B16 | -0.751 |
| B17 | 1.36 |
| B18 | -0.281 |
| B19 | 0.97 |
| B20 | 0.248 |
| B21 | -0.583 |
| B22 | -0.292 |
| B23 | -0.295 |

Target: T2, CIRBP
Experiment: as above

| Binder | binding signal [z-score] |
| --- | --- |
| B1 | -0.0859 |
| B2 | 1.75 |
| B3 | 0.0215 |
| B4 | 0.744 |
| B5 | 0.265 |
| B6 | 0.111 |
| B7 | 1.03 |
| B8 | -0.0281 |
| B9 | -0.633 |
| B10 | 1.65 |
| B11 | -0.0838 |
| B12 | -1.25 |
| B13 | 0.474 |
| B14 | 0.785 |
| B15 | 0.539 |
| B16 | 0.765 |
| B17 | -0.288 |
| B18 | -0.316 |
| B19 | 1.35 |
| B20 | -0.191 |
| B21 | -1.31 |
| B22 | 1.28 |
| B23 | 1.07 |

Target: T3, DHX36
Experiment: as above

| Binder | binding signal [z-score] |
| --- | --- |
| B1 | -1.04 |
| B2 | 5.76 |
| B3 | -0.335 |
| B4 | 0.642 |
| B5 | 0.685 |
| B6 | 1.19 |
| B7 | -0.277 |
| B8 | -0.398 |
| B9 | -0.658 |
| B10 | 5.17 |
| B11 | -0.523 |
| B12 | -0.799 |
| B13 | -0.262 |
| B14 | 2.59 |
| B15 | -0.0247 |
| B16 | 0.388 |
| B17 | -0.0611 |
| B18 | -0.268 |
| B19 | 0.646 |
| B20 | 0.366 |
| B21 | -0.612 |
| B22 | 0.396 |
| B23 | 0.52 |
